From patent publication US11026906B2, “Pharmaceutical quality strontium L-lactate” (priority 2016, dated 2021) come the findings set out here.

For this data set the following is noted: men and women, oral; comparator data from U.S. Pat. No. 7,595,342.

Turning to `C[C@H](O)C(=O)[O-].C[C@H](O)C(=O)[O-].[Sr+2]` [strontium L-lactate], the “absorption compared with strontium ranelate” value was “more rapidly and efficiently absorbed”.
